From PubChem BioAssay AID1778 (Sanford-Burnham Center for Chemical Genomics, 2009)
The list shows a part of the results. Measured potencies and affinities stand elsewhere. The source made the active and inactive calls. Cut-off read from the data, not from the text of the source: active = inhibition above about 50%; inactive = the rest.

The chains behind the UniProt entries cited, without tags or fusion partners. Where a name states a change or a piece, a line headed by the entry shows the natural chain unless it says otherwise.
UniProt P41145: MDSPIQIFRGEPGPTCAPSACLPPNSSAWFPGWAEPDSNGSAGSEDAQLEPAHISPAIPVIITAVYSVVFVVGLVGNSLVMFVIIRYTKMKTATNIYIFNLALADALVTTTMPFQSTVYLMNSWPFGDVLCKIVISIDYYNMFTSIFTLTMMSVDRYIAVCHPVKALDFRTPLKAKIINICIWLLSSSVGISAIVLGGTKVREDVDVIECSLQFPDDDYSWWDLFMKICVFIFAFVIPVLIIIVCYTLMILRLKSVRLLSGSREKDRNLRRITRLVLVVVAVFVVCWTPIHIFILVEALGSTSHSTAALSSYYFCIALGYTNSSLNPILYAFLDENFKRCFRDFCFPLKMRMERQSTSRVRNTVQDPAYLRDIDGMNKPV

The molecules below were run against Kappa-type opioid receptor (Homo sapiens) (UniProt P41145) (assay: kappa opioid receptor blockers – cell-based, luminescence, uHTS (AID 1778)). Details: KOR beta-arrestin recruitment, antagonist mode, at 10 µM, hits give high values.

SMILES | inhibition
O=C(Cn1c(S(=O)(=O)Cc2ccccc2)nc2ccccc21)N1CCCCC1 | inactive: -12.7%
COCCN1CCn2c(nc3cc(NC(=O)c4cccs4)ccc32)C1 | inactive: 3.7%
Cn1c(=O)n(CC(N)=O)c2ccccc21 | inactive: -21.1%
CCN(CC)CCn1c(NC(=O)c2ccc(Cl)cc2)nc2ccccc21 | inactive: 8.3%
COc1ccc(CNC(=O)[C@H](C)NC(=O)N2CCn3c2nc2ccccc23)cc1 | inactive: -45.3%
COc1cccc(CNC(=O)[C@H](CC(C)C)NC(=O)N2CCn3c2nc2ccccc23)c1 | inactive: 6.6%
CCOP(=O)(Nc1cccc2ccccc12)OCC | inactive: -7.8%
COc1cccc(CNc2nc3ccccc3n2CCN2CCCCC2)c1 | inactive: 23.7%
O=C(Nc1ccccc1)N1CCn2c(nc3ccccc32)C1 | inactive: -5.9%
O=C(Nc1ccc2c(c1)nc1n2CCN(C2CCCCC2)C1)c1ccco1 | inactive: 14.3%
O=C(CSc1nc2ccccc2n1CC(=O)N1CCCC1)Nc1ccc2c(c1)OCO2 | inactive: 32.5%
Cc1ccc2c(c1)C1CN(C)CCC1N2C(=S)Nc1ccc(OC(F)F)cc1 (stereo unspecified) | inactive: 0.3%
CC(=O)Nc1nc2ccccc2n1CCN(C)C | inactive: 16.8%
c1ccc2c(c1)nc1n2CCN1 | inactive: -5.6%
CC1CCC2C(=O)N(c3ccc(NC4CCN(Cc5ccccc5)CC4)c([N+](=O)[O-])c3)C(=O)C2C1 (stereo unspecified) | inactive: -0.6%
CCCC(=O)Nc1nnc(/C=C/c2ccc(OC)cc2)s1 | inactive: 9.1%
O=C(Cn1c(-c2cscn2)nc2ccccc21)Nc1ccc2ccccc2c1 | inactive: 31.2%
Cn1c(=O)c2c(ncn2CC(=O)N2CCCc3ccccc32)n(C)c1=O | inactive: -3.4%
COc1cccc(CNC(=O)CCCCCNC(=O)N2CCn3c2nc2ccccc23)c1 | inactive: -25.3%
O=P1(Nc2ccccn2)COc2ccccc2OC1 | inactive: 26.6%
Cn1c(=O)c2c(ncn2CC(=O)N/N=C/C=C/c2ccccc2[N+](=O)[O-])n(C)c1=O | inactive: -0.4%
O=C(Cn1c(SCc2ccccc2)nc2ccccc21)N1CCOCC1 | inactive: 15.3%
Cc1cc(C)cc(NC(=O)Cn2c(SCc3cc(C)ccc3C)nc3ccncc32)c1 | inactive: -13.4%

SMILES | inhibition
Cn1c(=O)c2c(ncn2CC(=O)N2CCN(c3ccc(F)cc3)CC2)n(C)c1=O | inactive: -5.6%
CCCCNC(=O)CC1C(=O)N(Cc2ccccc2)C(C)c2nc3ccccc3n21 (stereo unspecified) | inactive: -3.5%
CCOP(=O)(NC(=NC(C)c1ccccc1)NC(C)c1ccccc1)OCC (stereo unspecified) | inactive: -0.7%
O=C(Cn1c(NCCO)nc2ccccc21)NCCc1ccc(F)cc1 | inactive: -9%
CC(NC(=O)Cn1c(NCCO)nc2ccccc21)C1CC2CCC1C2 (stereo unspecified) | inactive: 0.2%
CCN(CC)CCn1c(NCc2cccc(OC)c2)nc2ccccc21 | inactive: -45.5%
CCOc1ccc(N2CCn3c2nc2c3c(=O)n(CCc3ccccc3)c(=O)n2C)cc1 | inactive: 30.5%
CCOC(=O)c1ccc(NC(=O)Cn2cnc3cc(C)c(C)cc32)cc1 | inactive: -13.8%
Cc1ccc(-c2nc(N(C)C3CCN(C)CC3)c3ccccc3n2)cc1 | inactive: -23.5%
CC(c1ccccc1)N1CCn2c(nc3cc(NC(=O)NC4CCCCC4)ccc32)C1 (stereo unspecified) | inactive: -16.6%
CC(C)NC(=O)CSc1nc2ccccc2n1CC(=O)N1CCc2ccccc21 | inactive: -2.3%
Cn1c(=O)oc2cc(S(=O)(=O)N3CCCC(C(=O)N4CCn5c4nc4ccccc45)C3)ccc21 (stereo unspecified) | inactive: 0.6%
CN(C)C1(c2nnnn2CCOC(=O)Nc2ccc(Cl)cc2)CCCCC1 | inactive: 18.5%
CNC(=O)Cn1c(=O)n(C)c2ccccc21 | inactive: 5.6%
CC1c2nc3ccccc3n2C(CC(=O)NC2CC2)C(=O)N1Cc1ccccc1 (stereo unspecified) | inactive: 8.6%
CCN1C(=O)CC(N2CCC(Nc3ccc(F)cc3)CC2)C1=O (stereo unspecified) | inactive: 37%
CCOP(=O)(Nc1ccc(C)cn1)OCC | inactive: 21.2%
Cc1ccc2c(c1)C1CN(C)CCC1N2C(=S)Nc1cccnc1 (stereo unspecified) | inactive: 29.2%
N#CCC(=O)N/N=C\c1ccc(OC/C=C/c2ccccc2)cc1 | inactive: 6.2%
FC(F)(F)c1cccc(-n2nnnc2C2(N3CCOCC3)CCCCC2)c1 | inactive: 6.3%
Cc1cc(N2C(=O)CC(N3CCC(n4c(=O)[nH]c5ccccc54)CC3)C2=O)no1 (stereo unspecified) | inactive: -6.4%
CC(C)NC(=O)Cn1c(SCC(=O)N2CCc3ccccc3C2)nc2ccccc21 | inactive: 9%
COc1cc(Cl)c(C)cc1NC(=O)Cn1c(NCCO)nc2ccccc21 | inactive: 16.5%
